## AlphaSeq binding of Ab-14 light chain variants to a spike HR2 peptide

Data: MIT Lincoln Laboratory AlphaSeq set, Engelhart et al. 2022, doi:10.1038/s41597-022-01779-4, as distributed in FLAb.

The target is the same throughout: PDVDLGDISGINAS, from the HR2 region of SARS-CoV-2 spike.

Ab-14 is the parent antibody, in scFv form: VH, then a 15-residue (Gly4Ser)3 linker, then VL. The heavy chain is unchanged in all variants.
VH: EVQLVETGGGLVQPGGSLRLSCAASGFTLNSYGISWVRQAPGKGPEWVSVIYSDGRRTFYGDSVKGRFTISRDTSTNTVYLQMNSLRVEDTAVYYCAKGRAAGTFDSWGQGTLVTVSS
VL: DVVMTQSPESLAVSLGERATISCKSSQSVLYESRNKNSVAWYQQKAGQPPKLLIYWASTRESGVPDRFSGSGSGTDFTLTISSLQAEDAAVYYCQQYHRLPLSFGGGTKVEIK

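AAYL50 was designed without a model: most single CDR substitutions and a random sample of double and triple ones. In AlphaSeq, yeast of one mating type display the scFv and yeast of the other type display the target. After mating in shaken culture at 30 °C for 16 h, diploids were selected and their barcode pairs sequenced. A regression on co-assayed BCL2-family reference pairs converts the normalised counts of each replicate to an apparent Kd. Mating was done three times.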

The parent's light chain CDRs are KSSQSVLYESRNKNSVA, WASTRES, QQYHRLPLS; each variant's own CDRs replace them letter for letter. Every variant below is changed at A57 of the VL (sequential numbering). Affinities are written as log10 Kd with Kd in nM; a lower number is a better binder. Replicates are averaged; those with no signal do not enter the mean. "nd" marks a missing value. The strain was present, yet no cells mated with the target were sequenced in that replicate, which points to weak or no binding.

* KFSQSQLYESRNKNSVA, WMSTRES, QQYHRLPLS: 0.91, 1.06, 1.08 (mean 1.02)
* KSSQEVLYESRNKNHVA, WVSTRES, QQYHRLPLS: 1.60, 1.69, 1.85 (mean 1.71)
* KSSQSVLTEKRNKNSVA, WCSTRES, QQYHRLPLS: nd, nd, nd
* KSSQSVLYESRNKVSVA, WCSTRES, QQYNRLPLS: nd, nd, nd
* KSSQSVLYESRNKNVVA, WKSTRES, QQYHRLPLS: 6.12, 3.55, nd (mean 4.83)
* KSSEVVLYESRNKNSVA, WGSTRES, QQYHRLPLS: 0.47, 0.75, 0.65 (mean 0.63)
* KSSQSVLYESRNKKSVA, WNSTRES, QQVHRLPLS: nd, nd, nd
* KSNQSVLYECRNKNSVA, WESTRES, QQYHRLPLS: 2.79, 3.07, 3.58 (mean 3.15)
* KSSQSVLYESRNKNSVA, WKSTRES, QLYHVLPLS: nd, nd, nd
* KSWQSVLYESRNMNSVA, WVSTRES, QQYHRLPLS: 2.27, 2.24, 2.51 (mean 2.34)
* MSSQSKLYESRNKNSVA, WPSTRES, QQYHRLPLS: nd, nd, nd
* KSSQSVLYEQRNKNNVA, WQSTRES, QQYHRLPLS: nd, nd, nd
* KSSQSVLYERRNKNSVA, WFSTRES, QQYHCLPLS: nd, 3.77, 4.50 (mean 4.13)
* KSSPSVLYESRNKNSVA, WFSTRES, QQYHRLPPS: nd, 4.26, nd
* KSSQSVLYESRNKNRVA, WFSTRES, RQYHRLPLS: nd, nd, nd
* KSSSSVLYESRNANSVA, WVSTRES, QQYHRLPLS: 1.36, 1.46, 1.49 (mean 1.44)
* KSSQSVLYESRNKNDVA, AGSTRES, QQYHRLPLS: -0.28, 0.12, -0.14 (mean -0.10)
* KSSQSVLYESRNKNSVA, WGFHRES, QQYHRLPLS: 1.22, 1.49, 1.62 (mean 1.44)
* KSSQSVLYESRNKNSGA, WNSLRES, QQYHRLPLS: 4.49, 5.40, nd (mean 4.95)
* KSSQSVLYESREKNSCA, WWSTRES, QQYHRLPLS: nd, nd, nd
* KSSQSVRYESRNKNSVA, WDSTRES, QQYHRLHLS: 1.80, 1.67, 2.08 (mean 1.85)
* KSSQSVLYESRCKYSVA, WRSTRES, QQYHRLPLS: nd, nd, nd
* KSSQSVLYDSRNKNSVA, WQSTRES, QQYHRLPLS: 2.41, 1.50, 1.78 (mean 1.90)
* KSSQSVLYESYNKNSVA, WLSTRES, QQYHMLPLS: nd, 3.21, nd
* KSSQSVLYESRNKNDVA, WTSTRES, QQYCRLPLS: 4.88, 2.68, nd (mean 3.78)
* KSSQSMLYESRNKNSVA, WVSTRES, QQYHSLPLS: 0.93, 1.07, 0.84 (mean 0.95)
* KCSQSVLYESRNKNSMA, WISTRES, QQYHRLPLS: nd, nd, nd
* KSSQSVLYESRNKNSVA, WYSTRES, QGYRRLPLS: nd, nd, nd
* KSSQSVLYESRNKNSPH, WNSTRES, QQYHRLPLS: 6.27, nd, 4.95 (mean 5.61)
* KSSQSVLYESRNKNSVA, WHSTRES, QQCHRLPLS: nd, nd, nd
* KSSQSVLHISRNKNSVA, WRSTRES, QQYHRLPLS: nd, 5.16, nd
* KSSQSVLYESRNKNSVA, WRMTRES, QQYHRVPLS: nd, nd, nd
* KSSQSVLYESRNANSVA, WVSTRES, QQYHRLPLS: 2.67, 2.52, 2.70 (mean 2.63)
* KSSQSVLYESRNKNSVA, WSSTFES, QQYHRLPLD: nd, nd, nd
* KSSQSVLYESRNKNSVA, WVSTRES, SQYTRLPLS: nd, nd, nd
* KSSQSVLYESRNKGSVA, WISTRES, QQYHRDPLS: nd, 5.64, nd
* KSSQSVLGESRNKNSVA, WGSTRES, QQYHKLPLS: 0.32, 0.62, 0.44 (mean 0.46)
* KSIQRVLYESRNKNSVA, WNSTRES, QQYHRLPLS: 2.25, nd, nd
* KSSESVLYESRNKNSVA, WNSTRER, QQYHRLPLS: 3.30, 2.81, 2.90 (mean 3.00)
* KSSQSVLYEYRNKNSVA, WLSTRES, QQYMRLPLS: nd, nd, nd
* KSSQSVLWESRNKNSVA, WKSTRES, QQYHRLPLS: 2.12, nd, 2.61 (mean 2.37)
* KSSQSVLYESRNKNSVA, WESTRES, QQYHRLPLS: 1.27, 1.39, 1.40 (mean 1.36)
* KSSQSVLYESRNKNSVA, WLSTRES, QQYHRTPLP: 3.48, nd, 5.08 (mean 4.28)
* KSSQSVLYESRNKNSVA, WLVTRES, QQYHRAPLS: nd, nd, nd
* KSSQSQLYESRNKNSVA, WHSTRES, QQYHRLPLS: nd, nd, nd
* KSSNSVLYESRNKNSVA, WEDTRES, QQYHRLPLS: 4.02, 2.88, 3.87 (mean 3.59)
* KSSQSVLYESRNKQSVA, WTSTRES, QQYHRLPLS: 1.26, 1.56, 1.56 (mean 1.46)
* KSSQSVLYESRNKNSVA, WVSTIES, QQYHRLPLF: nd, nd, nd
* KSSQSVLYESRNKNSEA, WQSTRES, GQYHRLPLS: nd, nd, 5.19
* KSSQSVLVESTNKNSVA, WKSTRES, QQYHRLPLS: 1.01, 1.13, 1.10 (mean 1.08)
* KSSQSVLYESRNKNSVA, WNSTRES, QQYHRLYPS: nd, nd, nd
* KSSQSVLYESRWKNSVA, WVSTRES, QVYHRLPLS: nd, 3.45, 4.52 (mean 3.99)

The opening 9 entries, copied out:

{"CDR-L1": "KFSQSQLYESRNKNSVA", "CDR-L2": "WMSTRES", "CDR-L3": "QQYHRLPLS", "log10 Kd, replicates": "0.91, 1.06, 1.08", "mean log10 Kd (nM)": "1.02"}
{"CDR-L1": "KSSQEVLYESRNKNHVA", "CDR-L2": "WVSTRES", "CDR-L3": "QQYHRLPLS", "log10 Kd, replicates": "1.60, 1.69, 1.85", "mean log10 Kd (nM)": "1.71"}
{"CDR-L1": "KSSQSVLTEKRNKNSVA", "CDR-L2": "WCSTRES", "CDR-L3": "QQYHRLPLS", "log10 Kd, replicates": "nd, nd, nd", "mean log10 Kd (nM)": "nd"}
{"CDR-L1": "KSSQSVLYESRNKVSVA", "CDR-L2": "WCSTRES", "CDR-L3": "QQYNRLPLS", "log10 Kd, replicates": "nd, nd, nd", "mean log10 Kd (nM)": "nd"}
{"CDR-L1": "KSSQSVLYESRNKNVVA", "CDR-L2": "WKSTRES", "CDR-L3": "QQYHRLPLS", "log10 Kd, replicates": "6.12, 3.55, nd", "mean log10 Kd (nM)": "4.83"}
{"CDR-L1": "KSSEVVLYESRNKNSVA", "CDR-L2": "WGSTRES", "CDR-L3": "QQYHRLPLS", "log10 Kd, replicates": "0.47, 0.75, 0.65", "mean log10 Kd (nM)": "0.63"}
{"CDR-L1": "KSSQSVLYESRNKKSVA", "CDR-L2": "WNSTRES", "CDR-L3": "QQVHRLPLS", "log10 Kd, replicates": "nd, nd, nd", "mean log10 Kd (nM)": "nd"}
{"CDR-L1": "KSNQSVLYECRNKNSVA", "CDR-L2": "WESTRES", "CDR-L3": "QQYHRLPLS", "log10 Kd, replicates": "2.79, 3.07, 3.58", "mean log10 Kd (nM)": "3.15"}
{"CDR-L1": "KSSQSVLYESRNKNSVA", "CDR-L2": "WKSTRES", "CDR-L3": "QLYHVLPLS", "log10 Kd, replicates": "nd, nd, nd", "mean log10 Kd (nM)": "nd"}

Nonspecific signal, from three strains lacking the peptide, appeared in 18% of pairings of library AAYL50, centred on 4.19 (5% of these signals below 2.99); values are not corrected for it.